Measured values taken from patent US20070264623A1, “Nanosensors” (PRESIDENT AND FELLOWS OF HARVARD COLLEGE, priority 2004, published 2007).

Molecular target: T1, Abl tyrosine kinase (Abelson murine leukemia virus, UniProt P00521)
T1 sequence (P00521 128-379 limits assumed): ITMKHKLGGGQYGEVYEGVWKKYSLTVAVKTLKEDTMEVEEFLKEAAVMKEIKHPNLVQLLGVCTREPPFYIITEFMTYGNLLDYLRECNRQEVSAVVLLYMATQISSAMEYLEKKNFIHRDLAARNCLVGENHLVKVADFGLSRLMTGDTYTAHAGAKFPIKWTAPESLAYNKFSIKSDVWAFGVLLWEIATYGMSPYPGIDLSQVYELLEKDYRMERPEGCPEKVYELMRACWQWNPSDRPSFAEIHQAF

## O=C(O)CCCC[C@@H]1SC[C@@H]2NC(=O)N[C@@H]21 [biotin]
100 nM ATP and 50 nM small molecule
  decrease in normalized conductance (degree of inhibition of ATP binding): essentially no change above background
Varying small molecule concentration, fixed 100 nM ATP
  concentration dependence of normalized delta-G (inhibition): almost no concentration dependence
